Measurements reported in patent publication US20240197746A1, “COMBINATION THERAPY WITH A MEK INHIBITOR AND A SRC INHIBITOR FOR THE TREATMENT OF COLORECTAL CANCER” (Yeda Research and Development Co. Ltd., priority 2021, published 2024).

Tested on: fresh & PDX human tumors
Test: EVOC drug dose calibration, cell death by H&E viability score
Format: cell-based
Details: concentrations that demonstrate a difference in amount of cell death in individual patient tissues
Description: Tissue acquisition and EVOC. Female NOD scid gamma (NSG) mice (4-6 months old) bearing PDX tumors were purchased from Jackson Laboratories. Mice arrived to the facility when the tumors had grown sufficiently to be apparent (approximately 60 mm^3) and were maintained until the maximal permitted tumor volume of 1,000 mm^3 was achieved. Mice were killed with CO2, and tumor tissues were removed and placed in ice-cold PBS. […]
Human tumor tissue, either from primary colon cancer or metastatic lesions, was obtained from individuals at the time of operation or at the time of tissue core biopsy. […] Finally, 29 CRC primary or metastatic tumors from 28 individuals were analyzed by EVOC.
Histologic sections were assessed for viability by an independent blinded pathologist. Tissue viability was scored on a scale from 0 to 4, where 0 is less than 10% viable tissue and 4 is more than 90% viable tissue. […]
Determination of drug treatment concentrations. […] For the screens, we selected the doses that were minimally effective in killing tissue after 4 d of treatment as evaluated by H&E staining. […] This was evaluated by immunohistochemical staining after 24 h of treatment (FIGS. 11A-C). […]

With 4-hydroxycyclophosphamide the “Range eliciting differential response” value was 2 to 20 µM.
